pIC50: −log10 of the molar value.
Biological target: KCNT1 (KNa1.1, Slack) (Homo sapiens, UniProt Q5JUK3)
Assay: KCNT1-WT-Basal patch clamp assay (SyncroPatch 384PE, HEK-TREX inducible cell line)
Format: cell-based
Settings: read-out: KCNT1 WB IC50; tetracycline inducible HEK-TREX cells; perforated patch; holding -80 mV, 100 ms step to 0 mV; room temperature
Method: KCNT1-WT-Basal—Patch Clamp Assay
Inhibition of KCNT1 (KNa1.1, Slack) was evaluated using a tetracycline inducible cell line (HEK-TREX). Currents were recorded using the SyncroPatch 384PE automated, patch clamp system. Pulse generation and data collection were performed with PatchController384 V1.3.0 and DataController384 V1.2.1 (Nanion Technologies). The access resistance and apparent membrane capacitance were estimated using built-in protocols. Current were recorded in perforated patch mode (10 μM escin) from a population of cells. The cells were lifted, triturated, and resuspended at 800,000 cells/ml. The cells were allowed to recover in the cell hotel prior to experimentation. Currents were recorded at room temperature. The external solution contained the following (in mM): NaCl 105, NMDG 40, KCl 4, MgCl2 1, CaCl2 5 and HEPES 10 (pH=7.4, Osmolarity ˜300 mOsm). The extracellular solution was used as the wash, reference and compound delivery solution. The internal solution contained the following (in mM): NaCl 70, KF 70, KCl 10, EGTA 5, HEPES 5 and Escin 0.01 (pH=7.2, Osmolarity ˜295 mOsm). Escin is made at a 5 mM stock in water, aliquoted, and stored at −20° C. The compound plate was created at 2× concentrated in the extracellular solution. The compound was diluted to 1:2 when added to the recording well. The amount of DMSO in the extracellular solution was held constant at the level used for the highest tested concentration. A holding potential of −80 mV with a 100 ms step to 0 mV was used. Mean current was measured during the step to 0 mV. […] The average mean current from 3 sweeps was calculated and the % inhibition of each compound was calculated. The % Inhibition as a function of the compound concentration was fit with a Hill equation to derive IC50, slope, min and max parameters. If KCNT1 inhibition was less than 50% at the highest tested concentration or if an IC50 could not be calculated, then a percent inhibition was reported in place of the IC50. […]

Sequences of proteins named here, by UniProt entry; tags and fusion partners are left off.
UniProt Q5JUK3, whole entry: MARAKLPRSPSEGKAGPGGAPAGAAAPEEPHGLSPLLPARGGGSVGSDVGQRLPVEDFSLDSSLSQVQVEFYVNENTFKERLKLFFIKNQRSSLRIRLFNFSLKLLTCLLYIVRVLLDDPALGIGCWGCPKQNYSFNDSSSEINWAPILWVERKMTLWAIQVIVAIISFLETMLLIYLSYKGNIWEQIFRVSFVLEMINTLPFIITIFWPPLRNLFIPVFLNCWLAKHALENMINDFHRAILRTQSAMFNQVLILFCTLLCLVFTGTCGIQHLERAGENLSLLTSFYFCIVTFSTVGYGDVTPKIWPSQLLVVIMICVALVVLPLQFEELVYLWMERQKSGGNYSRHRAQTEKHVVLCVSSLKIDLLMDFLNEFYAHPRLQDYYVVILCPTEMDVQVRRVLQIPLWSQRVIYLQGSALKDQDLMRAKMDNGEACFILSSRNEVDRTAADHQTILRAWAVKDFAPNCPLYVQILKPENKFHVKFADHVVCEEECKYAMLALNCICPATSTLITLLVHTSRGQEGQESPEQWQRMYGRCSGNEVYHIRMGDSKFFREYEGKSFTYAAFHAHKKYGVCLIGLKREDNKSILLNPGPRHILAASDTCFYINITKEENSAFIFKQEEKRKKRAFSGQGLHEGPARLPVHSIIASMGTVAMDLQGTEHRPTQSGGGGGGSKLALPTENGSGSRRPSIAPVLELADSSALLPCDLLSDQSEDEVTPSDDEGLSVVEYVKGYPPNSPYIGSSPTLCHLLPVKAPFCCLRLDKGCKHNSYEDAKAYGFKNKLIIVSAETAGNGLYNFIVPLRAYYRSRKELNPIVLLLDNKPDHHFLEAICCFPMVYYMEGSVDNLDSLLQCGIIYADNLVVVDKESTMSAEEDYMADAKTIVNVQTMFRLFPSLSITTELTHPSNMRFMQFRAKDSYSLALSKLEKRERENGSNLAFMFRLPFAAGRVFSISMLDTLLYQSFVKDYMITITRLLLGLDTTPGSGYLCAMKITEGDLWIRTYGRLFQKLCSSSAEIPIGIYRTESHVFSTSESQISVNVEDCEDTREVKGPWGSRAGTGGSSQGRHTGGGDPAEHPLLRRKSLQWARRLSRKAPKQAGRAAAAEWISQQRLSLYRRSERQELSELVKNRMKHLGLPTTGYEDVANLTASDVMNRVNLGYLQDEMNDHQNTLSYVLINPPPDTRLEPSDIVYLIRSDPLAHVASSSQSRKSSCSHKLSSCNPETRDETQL

| SMILES | pIC50 |
| --- | --- |
| CN(c1ccc(C(=O)N[C@@H]2CCc3cc(Cl)ccc32)cc1)S(=O)(=O)C(F)(F)F | 4.70 to 6.00 |
| CS(=O)(=O)Cc1ccc(C(=O)N[C@@H]2CCc3cc(Cl)ccc32)s1 | > 6.00 |
| CS(=O)(=O)c1ccc(C(=O)NC2CCCc3cc(Cl)ccc32)cc1 (single isomer, unassigned) | < 4.70 |

Reference: US20220280476A1, “KCNT1 INHIBITORS AND METHODS OF USE” (Praxis Precision Medicines, Inc., priority 2019, published 2022)
